Drawing on US11130759B1, “2-oxoquinazoline derivatives as methionine adenosyltransferase 2A inhibitors” (IDEAYA BIOSCIENCES, INC., priority 2018, dated 2021), this text covers IC50 for one molecule.

Amino acid sequences for entries named in this document (tags omitted).
UniProt P31153, whole entry: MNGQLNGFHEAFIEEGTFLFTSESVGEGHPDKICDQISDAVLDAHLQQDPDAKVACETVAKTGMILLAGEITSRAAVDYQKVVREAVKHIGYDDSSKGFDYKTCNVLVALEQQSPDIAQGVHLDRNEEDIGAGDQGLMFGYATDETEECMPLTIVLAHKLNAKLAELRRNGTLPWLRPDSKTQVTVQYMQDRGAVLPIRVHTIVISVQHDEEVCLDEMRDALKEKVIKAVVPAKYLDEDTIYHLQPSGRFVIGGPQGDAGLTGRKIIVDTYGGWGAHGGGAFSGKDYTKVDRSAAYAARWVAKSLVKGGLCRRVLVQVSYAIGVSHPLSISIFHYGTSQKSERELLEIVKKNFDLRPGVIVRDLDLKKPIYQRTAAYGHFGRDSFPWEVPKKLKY

This experiment deals with Human MAT2A (Homo sapiens (Human), UniProt P31153). The experiment in a line: Phosphate Sensor Fluorescence Assay (MAT2A enzyme inhibition). It counts as biochemical. The following applies: read-out: IC50 um, L-methionine 500 uM, ATP 500 uM, class symbols.

For the molecule `C[C@@H](CO)Nc1nc(=O)n(-c2ccccc2Cl)c2nc(C(F)(F)F)ccc12` [one of 273 and 292], the IC50 was in the range of 1 to 10 µM.

The term IC50 denotes the concentration needed to halve the response being measured.
